Paper PMC8560763, “Roles of metal ions in the selective inhibition of oncogenic variants of isocitrate dehydrogenase 1” (Communications Biology, 2021)
“And” between values parts separate entries of the source, which are not always exact repeats. Identical values can stand only once. “Also recorded” adds a separate entry of the source.

Amino acid sequences for entries named in this document (tags omitted). Residues count along the entry.
UniProt O75874, 2-414: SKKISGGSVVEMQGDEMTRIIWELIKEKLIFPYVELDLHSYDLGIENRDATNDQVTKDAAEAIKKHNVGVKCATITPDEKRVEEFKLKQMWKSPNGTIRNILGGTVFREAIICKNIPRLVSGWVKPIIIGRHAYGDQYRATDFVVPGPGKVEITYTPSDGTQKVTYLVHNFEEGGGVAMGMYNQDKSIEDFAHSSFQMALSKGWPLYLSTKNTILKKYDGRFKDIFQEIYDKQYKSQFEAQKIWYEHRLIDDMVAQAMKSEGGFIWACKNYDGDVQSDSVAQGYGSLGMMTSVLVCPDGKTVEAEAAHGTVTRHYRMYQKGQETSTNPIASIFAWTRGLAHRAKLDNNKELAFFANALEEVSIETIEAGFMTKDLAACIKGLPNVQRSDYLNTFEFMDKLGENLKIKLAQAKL

Columns and labels:
[1] = target: T1, wt IDH1 (Homo sapiens, UniProt O75874); experiment: Absorbance assay (NADPH, 340 nm): kinetics of oxidative reaction (isocitrate to 2OG) by wt IDH1; assay type: biochemical
T1 construct: made in house; host or cells: Escherichia coli BL21(DE3) pLyS
Procedure: All experiments were performed in (at least) triplicate.
KM values were determined by varying concentrations of the substrate/cofactor under investigation while maintaining the concentrations of other components using standard conditions. […] Graphs were fitted using GraphPad Prism to obtain kinetic parameters.

[2] = target: T1, wt IDH1; experiment: 1H NMR reaction monitoring, wt IDH1; assay type: biochemical; conditions: 1H NMR (700 MHz), NADP+, 10 mM MgCl2
[3] = target: T1, wt IDH1; experiment: Differential scanning fluorimetry (DSF) thermal shift, wt IDH1; assay type: binding
Procedure: Thermal shift experiments were carried out using Sypro Orange dye and a CFX96 Touch^TM Real-Time PCR Detection System (Bio-Rad)[69]. […] The standard assay buffer contains 50 mM Tris-HCl at pH 7.5. Various concentrations of substrates were mixed with IDH1 for thermal stabilisation studies. The samples in triplicates were subjected to temperature increases from 20 to 95 °C at 0.2 °C min^−1. Bio-Rad CFX Manager was used to determine the melting temperature, Tm.

O=C(O)CC(C(=O)O)C(O)C(=O)O (racemic) [DL-isocitrate]
Velocity ([1]; Fig. S2a, [Isocitrate] 18.75 μM): 0.08475 µM/s and 0.05817 µM/s and 0.04396 µM/s
Velocity ([1]; Fig. S2a, [Isocitrate] 37.5 μM): 0.1403 µM/s and 0.1279 µM/s and 0.1324 µM/s
Velocity ([1]; Fig. S2a, [Isocitrate] 75 μM): 0.1758 µM/s and 0.1682 µM/s and 0.1563 µM/s
Velocity ([1]; Fig. S2a, [Isocitrate] 150 μM): 0.1816 µM/s and 0.1737 µM/s and 0.1677 µM/s
Velocity ([1]; Fig. S2a, [Isocitrate] 300 μM): 0.2122 µM/s and 0.1769 µM/s and 0.169 µM/s
Velocity ([1]; Fig. S2a, [Isocitrate] 600 μM): 0.22 µM/s and 0.2077 µM/s and 0.1669 µM/s
Velocity ([1]; Fig. S2a, [Isocitrate] 1200 μM): 0.2093 µM/s and 0.1956 µM/s and 0.1853 µM/s
Velocity ([1]; Fig. S2a, [Isocitrate] 2400 μM): 0.2164 µM/s and 0.2369 µM/s and 0.2 µM/s
Velocity ([1]; Fig. S3a, MnCl2 as metal, [Isocitrate] 2.34375 μM): 0.008686 µM/s and 0.01106 µM/s and 0.008949 µM/s
Velocity ([1]; Fig. S3a, MnCl2 as metal, [Isocitrate] 18.75 μM): 0.1113 µM/s and 0.09186 µM/s and 0.08002 µM/s
Velocity ([1]; Fig. S3a, MnCl2 as metal, [Isocitrate] 37.5 μM): 0.2006 µM/s and 0.1816 µM/s and 0.1766 µM/s
Velocity ([1]; Fig. S3a, MnCl2 as metal, [Isocitrate] 75 μM): 0.2687 µM/s and 0.239 µM/s and 0.2364 µM/s
Velocity ([1]; Fig. S3a, MnCl2 as metal, [Isocitrate] 150 μM): 0.2651 µM/s and 0.2456 µM/s
Velocity ([1]; Fig. S3a, MnCl2 as metal, [Isocitrate] 300 μM): 0.2914 µM/s and 0.2874 µM/s and 0.2895 µM/s
Velocity ([1]; Fig. S3a, MnCl2 as metal, [Isocitrate] 600 μM): 0.2808 µM/s and 0.2824 µM/s and 0.2974 µM/s
Velocity ([1]; Fig. S3a, MnCl2 as metal, [Isocitrate] 1200 μM): 0.324 µM/s and 0.3009 µM/s and 0.2719 µM/s
Velocity ([1]; Fig. S3a, MnCl2 as metal, [Isocitrate] 2400 μM): 0.3338 µM/s and 0.2937 µM/s and 0.2569 µM/s
Vmax ([1]; wt IDH1, oxidative reaction with Mg^2+ (10 mM MgCl2)): 216 ± 8 nM/s
Vmax ([1]; wt IDH1, oxidative reaction with Mn^2+ (10 mM MnCl2)): 313 ± 8 nM/s
conversion by wt IDH1 [2]: 50% converted
Δ in Tm ([3]; Fig. 2f, wt IDH1, 0.25 mM DL-isocitrate + 10 mM MgCl2, replicates): 13.3 °C
Δ in Tm ([3]; Fig. 2f, wt IDH1, 0.5 mM DL-isocitrate + 10 mM MgCl2, replicates): 15.1 °C and 14.5 °C and 14.3 °C
Δ in Tm ([3]; Fig. 2f, wt IDH1, 1 mM DL-isocitrate + 10 mM MgCl2, replicates): 16.1 °C and 15.9 °C (2×)
Δ in Tm ([3]; Fig. 2f, wt IDH1, 2 mM DL-isocitrate + 10 mM MgCl2, replicates): 17.7 °C
Δ in Tm ([3]; Fig. 2f, wt IDH1, 4 mM DL-isocitrate + 10 mM MgCl2, replicates): 19.3 °C (2×) and 19.1 °C
Δ in Tm ([3]; Fig. 2f, wt IDH1, […] DL-isocitrate + 10 mM MgCl2, replicates): 12.1 °C
Δ in Tm ([3]; Fig. 2d, wt IDH1, 0.25 mM DL-isocitrate, replicates): 6.8 °C (2×) and 6.9 °C
Δ in Tm ([3]; Fig. 2d, wt IDH1, 0.5 mM DL-isocitrate, replicates): 8.6 °C and 8.8 °C and 8.7 °C
Δ in Tm ([3]; Fig. 2d, wt IDH1, 1 mM DL-isocitrate, replicates): 11.2 °C and 11.4 °C and 11.3 °C
Δ in Tm ([3]; Fig. 2d, wt IDH1, 2 mM DL-isocitrate, replicates): 13.0 °C and 13.2 °C (2×)
Δ in Tm ([3]; Fig. 2d, wt IDH1, 4 mM DL-isocitrate, replicates): 16.4 °C and 15.4 °C and 15.9 °C
thermal stabilisation ([3]; wt IDH1, 0.125–4 mM isocitrate alone): 4.6–16 °C
thermal stabilisation ([3]; wt IDH1, 0.125–4 mM isocitrate, with Mg^2+ (10 mM)): 12–19 °C
thermal stabilisation by cosubstrates ([3]; wt IDH1, 0.125—4 mM, 50 mM Tris-HCl, pH 7.5): stabilise

O=C(O)C[C@H](C(=O)O)[C@@H](O)C(=O)O [D-isocitrate]
conversion by wt IDH1 [2]: selectively converted to 2OG; also recorded: fully converted
